Data published in PubChem BioAssay (NCATS).
Only a part is listed here, and it is no random draw. Inconclusive results are not listed. Some salts and complexes are drawn in separate pieces, as the source files them; their charges need not balance. Calls of active or inactive are those of the source. Unless noted, calls come from the whole dose curve; as a rule, active = well fitted curve in the direction sought with a large enough effect; inconclusive = small, poorly fitted or top-dose-only effect, or another doubt; inactive = no such curve, though single readings can be large; an effect the other way counts as inactive or inconclusive.

Protein sequences, listed by entry. Tags and fused reporters are not part of them.
UniProt O75469, whole entry: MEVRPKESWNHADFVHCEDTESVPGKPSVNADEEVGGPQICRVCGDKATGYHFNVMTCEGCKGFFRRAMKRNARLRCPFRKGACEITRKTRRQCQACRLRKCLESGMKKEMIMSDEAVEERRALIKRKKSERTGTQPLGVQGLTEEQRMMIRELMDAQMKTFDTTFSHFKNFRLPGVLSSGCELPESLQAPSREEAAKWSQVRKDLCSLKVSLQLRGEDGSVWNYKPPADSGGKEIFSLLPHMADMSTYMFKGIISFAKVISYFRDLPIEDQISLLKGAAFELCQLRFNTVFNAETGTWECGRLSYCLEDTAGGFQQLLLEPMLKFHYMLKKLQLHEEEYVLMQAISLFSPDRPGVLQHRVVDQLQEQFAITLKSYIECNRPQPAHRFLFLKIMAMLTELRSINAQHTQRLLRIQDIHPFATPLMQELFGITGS

Experiments:
CRL-7250 [1] = experiment: Cytotoxic Profiling of Annotated Libraries Using Quantitative High-Throughput Screening (AID 1296008); settings: Five cell lines viability, CellTiter-Glo ATP luminescence, 48-72 h; stronger effect = lower value; note: nearly all actives have a fitted effect of over 60% in size; for max response: % is set by controls: 0 for no effect and ±100 for the full control effect
Procedure, shortened: (§1)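 Cytotoxicity was measured as CellTiter-Glo ATP luminescence, read after 10 min at room temperature. Compound treatment of the cells lasted 48 or 72 hr at 37 degrees Celsius in a qHTS format.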

HaCat [2] = experiment: as above; settings: Five cell lines viability, CellTiter-Glo ATP luminescence, 48-72 h; stronger effect = lower value
Procedure, shortened: as §1

KB-3-1 = experiment: as above; settings: Five cell lines viability, CellTiter-Glo ATP luminescence, 48-72 h; stronger effect = lower value
Procedure, shortened: as §1

NIH3T3 = experiment: as above; settings: Five cell lines viability, CellTiter-Glo ATP luminescence, 48-72 h; stronger effect = lower value
Procedure, shortened: as §1

CRL-7250 [3] = experiment: qHTS assay to identify novel small-molecules to repurpose for Merkel cell carcinoma treatment (AID 1296009); settings: MCC and control cell lines, CellTiter-Glo viability, 72 h; at 17.4 µM (top of the series); note: nearly all actives have a fitted effect of over 60% in size; for activity change, negative = cytotoxicity: % is set by controls: 0 for no effect and ±100 for the full control effect
Procedure, shortened: (§2)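 72 hr, 37 degree celsius; NPC 8-pt / MIPE 11-pt dose response; compound pinned in DMSO; CellTiter-Glo, 10 min RT, luminescence; normalized to no-cell and DMSO controls.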

HACAT [4] = experiment: as above; settings: MCC and control cell lines, CellTiter-Glo viability, 72 h; at 92 µM (top of the series) unless noted
Procedure, shortened: as §2

C33A = experiment: Primary qHTS to identify gynecologic anti-cancer compounds using libraries of approved drugs and bioactive compounds (AID 1345084); settings: Gynecologic cancer cell panel viability, ATPlite luminescence, 48 h; at 57.5 µM (top of the series) unless noted; note: % is set by controls: 0 for no effect and ±100 for the full control effect; nearly all actives have a fitted effect of over 55% in size
Procedure, shortened: (§3)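 Luminescence from the ATPlite ATP-monitoring reagent indicates viable cell number; lower signal means cytotoxicity. Cells received compound 16 h after seeding and were exposed for 48 h across five concentrations.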

CAOV3 = experiment: as above; settings: Gynecologic cancer cell panel viability, ATPlite luminescence, 48 h; at 57.5 µM (top of the series) unless noted
Procedure, shortened: as §3

CASKI = experiment: as above; settings: Gynecologic cancer cell panel viability, ATPlite luminescence, 48 h; at 57.5 µM (top of the series) unless noted
Procedure, shortened: as §3

Es-2 = experiment: as above; settings: Gynecologic cancer cell panel viability, ATPlite luminescence, 48 h; at 57.5 µM (top of the series) unless noted
Procedure, shortened: as §3

[5] = Dual reporter qHTS for agonist of Pregnane X Receptor (hPXR) against the NCATS DSHEA and TCM libraries: Fluorescence readout (AID 1920058); settings: PXR dual reporter cells; at 40 µM (top of the series); note: 0% is about no effect
Procedure, shortened: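 hPXR-Luc HepG2 cells, 2000/well in charcoal-stripped serum, attached 5 h, dosed for ~24 h at 37 °C. Fluorescence read is CellTiter-Fluor viability (Ex/Em 405/540 nm); rifampicin positive, tetraoctyl ammonium bromide (92 µM) cytotoxicity controls.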

[6] = biological target: Nuclear receptor subfamily 1 group I member 2 (Homo sapiens) (UniProt O75469); experiment: Dual reporter qHTS for antagonist of Pregnane X Receptor (hPXR) against the NCATS DSHEA and TCM libraries: Luminescence Readout (AID 1920060); settings: hPXR dual reporter cells, luciferase luminescence, antagonist mode; at 40 µM (top of the series);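 note: HepG2 cells carrying hPXR luciferase reporter stimulated with rifampicin at 2 µM; 0% is about no effect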
Procedure, shortened: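 HepG2 hPXR-Luc, 2000 cells/well, charcoal-stripped FBS medium; 5 h attach; RIF 2 uM final; 24 h 37C/5% CO2; CellTiter-Fluor 1 h, fluor 405/540; ONE-Glo 30 min RT, lum.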

HEK293 = experiment: Cytotoxic Profiling of Annotated Libraries Using Quantitative High-Throughput Screening (AID 1296008); settings: Five cell lines viability, CellTiter-Glo ATP luminescence, 48-72 h, stronger effect = lower value; note: nearly all actives have a fitted effect of over 60% in size; for max response: % is set by controls: 0 for no effect and ±100 for the full control effect
Procedure, shortened: as §1

MCC-13 = experiment: qHTS assay to identify novel small-molecules to repurpose for Merkel cell carcinoma treatment (AID 1296009); settings: MCC and control cell lines, CellTiter-Glo viability, 72 h; at 92.7 µM (top of the series); note: nearly all actives have a fitted effect of over 60% in size; for activity change, negative = cytotoxicity: % is set by controls: 0 for no effect and ±100 for the full control effect
Procedure, shortened: as §2

MCC-26 = experiment: as above; settings: MCC and control cell lines, CellTiter-Glo viability, 72 h; at 92.7 µM (top of the series)
Procedure, shortened: as §2

MKL-1 = experiment: as above; settings: MCC and control cell lines, CellTiter-Glo viability, 72 h; at 92.7 µM (top of the series)
Procedure, shortened: as §2

MKL-2 = experiment: as above; settings: MCC and control cell lines, CellTiter-Glo viability, 72 h; at 92.7 µM (top of the series)
Procedure, shortened: as §2

UISO = experiment: as above; settings: MCC and control cell lines, CellTiter-Glo viability, 72 h; at 92.7 µM (top of the series)
Procedure, shortened: as §2

WaGa = experiment: as above; settings: MCC and control cell lines, CellTiter-Glo viability, 72 h; at 92.7 µM (top of the series)
Procedure, shortened: as §2

[7] = qHTS drug screen for cell cycle checkpoint inhibitors in PARPi-resistant BRCA-mutant ovarian cancer cell lines. (AID 1963452; calls by dose curve); settings: PEO1/OlaR viability, CellTiter-Glo luminescence, 96 h; stronger effect = lower value
Procedure, shortened: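 PEO1, PEO4 and PEO1/OlaR ovarian cancer cells, 600 per well, exposed 96 h at 37C to a dilution series. Viability read by CellTiter-Glo luminescence, normalized to DMSO and empty wells; activity summarized as Z-AUC.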

C/C1=C2N=C(/C=C3N=C(/C(C)=C4\N=C(C(CC(N)=O)C4(C)CCC(=O)NCC(C)OP(=O)([O-])OC4C(CO)OC(n5cnc6cc(C)c(C)cc65)C4O)C4(C)N=C1C(CCC(N)=O)C4(C)CC(N)=O)C(CCC(N)=O)C\3(C)C)C(CCC(N)=O)C/2(C)CC(N)=O.[C-]#N.[Co] (stereo unspecified)
inactive: outcome (CRL-7250 [1]) | outcome (HaCat [2]) | max response (KB-3-1) -7.72% | max response (NIH3T3) 0.696% | outcome (CRL-7250 [3]) | outcome (HACAT [4]) inactive [at 17.4 µM] | activity change, negative = cytotoxicity (C33A) 7.92% [at 25.3 µM] | activity change, negative = cytotoxicity (CAOV3) 6.77% [at 25.3 µM] | activity change, negative = cytotoxicity (CASKI) 2.99% [at 25.3 µM] | activity change, negative = cytotoxicity (Es-2) 6.01% [at 25.3 µM]

C/C1=C2N=C(/C=C3N=C(/C(C)=C4\[N-][C@@](C)([C@@H]5N=C1[C@](C)(CCC(=O)NC[C@@H](C)OP(=O)([O-])O[C@H]1[C@@H](O)[C@@H](n6cnc7cc(C)c(C)cc76)O[C@@H]1CO)[C@H]5CC(N)=O)[C@@](C)(CC(N)=O)[C@@H]4CCC(N)=O)[C@@](C)(CC(N)=O)[C@@H]\3CCC(N)=O)C(C)(C)[C@@H]/2CCC(N)=O.[C-]#N.[Co+3]
inactive: activation [5] -21.8% | activity change, negative = inhibition [6] -11.2% | activity change, negative = cytotoxicity (C33A) -16.2% | activity change, negative = cytotoxicity (CAOV3) -18.5% | activity change, negative = cytotoxicity (CASKI) -26.7% | activity change, negative = cytotoxicity (Es-2) -25.2%

CC(C)OP(=O)(F)OC(C)C
inactive: max response (KB-3-1) 2.85%

OCCSCCO
inactive: max response (CRL-7250 [1]) 2.1% | max response (HEK293) 3.7% | outcome (HaCat [2]) | max response (KB-3-1) 3.94% | outcome (NIH3T3) | activity change, negative = cytotoxicity (C33A) -3.82% | activity change, negative = cytotoxicity (CAOV3) -1.09% | activity change, negative = cytotoxicity (CASKI) 1.45% | activity change, negative = cytotoxicity (Es-2) -4.39%

CCOP(=O)(CC)Oc1ccc([N+](=O)[O-])cc1 (stereo unspecified)
inactive: max response (CRL-7250 [1]) -21.6% | max response (HaCat [2]) -3.12% | outcome (KB-3-1) | max response (NIH3T3) -7.33% | activity change, negative = cytotoxicity (C33A) 4.46% | activity change, negative = cytotoxicity (CAOV3) 18.2% | activity change, negative = cytotoxicity (CASKI) -3.74%

O=[N+]([O-])[O-].[NH4+]
inactive: max response (KB-3-1) 4.57%

CC(C)N(CCCl)C(C)C
inactive: max response (KB-3-1) -14.2%

O=[N+]([O-])c1cccc([N+](=O)[O-])c1
inactive: max response (HEK293) 3.19% | max response (HaCat [2]) -1.95% | max response (KB-3-1) -1.67% | max response (NIH3T3) -5.54% | activity change, negative = cytotoxicity (C33A) 1.34% [at 116 µM] | activity change, negative = cytotoxicity (CAOV3) 5.36% [at 116 µM] | activity change, negative = cytotoxicity (CASKI) -0.402% [at 116 µM]

Cc1cccc([N+](=O)[O-])c1[N+](=O)[O-]
inactive: max response (CRL-7250 [1]) -4.04% | max response (HEK293) 0.892% | outcome (HaCat [2]) | max response (KB-3-1) -16.9% | max response (NIH3T3) -8.9% | outcome (HACAT [4]) | activity change, negative = cytotoxicity (MCC-13) 4.39% | activity change, negative = cytotoxicity (MCC-26) 16% | activity change, negative = cytotoxicity (MKL-1) 1.62% | activity change, negative = cytotoxicity (MKL-2) 3.99% | activity change, negative = cytotoxicity (UISO) 13.2% | activity change, negative = cytotoxicity (WaGa) -6.76% | activity change, negative = cytotoxicity (C33A) 0.498% | activity change, negative = cytotoxicity (CAOV3) -4.26% | activity change, negative = cytotoxicity (CASKI) 0.961% | activity change, negative = cytotoxicity (Es-2) 8.7%

O=[N+]([O-])OCC(CO[N+](=O)[O-])(CO[N+](=O)[O-])CO[N+](=O)[O-]
inactive: max response (KB-3-1) 7.35%

CN(C)CCS
inactive: max response (KB-3-1) 12.9%

C/C1=C2/N=C(C(CC(N)=O)C2(C)CCC(=O)NCC(C)OP(=O)([O-])OC2C(CO)OC(n3cnc4cc(C)c(C)cc43)C2O)C2(C)N=C(/C(C)=C3N=C(/C=C4N=C1C(CCC(N)=O)C\4(C)C)C(CCC(N)=O)C/3(C)CC(N)=O)C(CCC(N)=O)C2(C)CC(N)=O.[C-]#N.[Co] (stereo unspecified)
inactive: Z-AUC [7] 1.4
